# Literature values as cited in PubChem BioAssay AID1811 (Shanghai Institute of Organic Chemistry, 2009).
# This is one part of the list. Activity calls are given as the source filed them. Unless stated, no cut-off for active and inactive is given here.
# Tested on: hypothetical protein ydce
# Assay: PubChem AID 1811
# Details: PDB complex binding affinities from literature
compound,measurement,value
O=C(O)c1ccccc1,outcome,active
